Laboratory results published in patent publication US20250236603A1, “SOLID FORMS OF ALECTINIB AND ALECTINIB SALTS” (Synthon B.V., priority 2022, published 2025).

Assay: Solubilities of prepared salts (buffer pH 1.2 with 4% Triton X-100, HPLC)
Details: Example 28, 20 mg salt in 10 ml buffer pH 1.2 and 4% Triton X-100, +37° C., 100 rpm

- Solubility after 1 hour: 1270 µg/mL
Substance: Alectinib ethane sulfonate salt [Ethane sulfonate salt, Form 1]
